# Results reported in US4680304A, “Feed compositions containing 2-(α-pyridyl)-Δ^2 -heterocyclic compounds” (SmithKline Beckman Corporation, priority 1985, dated 1987).
# System: fermentation in the digestive tract (swine ileal/cecal inoculum)
# Experiment: In vitro swine procedure (fistula test; incubation of filtered ileal/cecal inoculum)
# Design: species or system swine (Yorkshire barrow)
# Conditions: 166.67 ppm, 5 hours at 37°
smiles,measurement,value
"CC1(C)NN=C(c2ccccn2)N1 [5,5-Dimethyl-3-(2'-pyridyl)-4,5-dihydro-1H-triazole]",LYS (lysine),97 % of control values
